The record followed here is ChEMBL document CHEMBL1138430, “Novel tetrahydroisoquinolines are histamine H3 antagonists and serotonin reuptake inhibitors” (Bioorg Med Chem Lett, 2007).

Chains of the proteins cited; added tags and fusions are not shown. Lines headed by an entry give the natural chain unless they say otherwise; changes in a name come on top.
UniProt Q9Y5N1: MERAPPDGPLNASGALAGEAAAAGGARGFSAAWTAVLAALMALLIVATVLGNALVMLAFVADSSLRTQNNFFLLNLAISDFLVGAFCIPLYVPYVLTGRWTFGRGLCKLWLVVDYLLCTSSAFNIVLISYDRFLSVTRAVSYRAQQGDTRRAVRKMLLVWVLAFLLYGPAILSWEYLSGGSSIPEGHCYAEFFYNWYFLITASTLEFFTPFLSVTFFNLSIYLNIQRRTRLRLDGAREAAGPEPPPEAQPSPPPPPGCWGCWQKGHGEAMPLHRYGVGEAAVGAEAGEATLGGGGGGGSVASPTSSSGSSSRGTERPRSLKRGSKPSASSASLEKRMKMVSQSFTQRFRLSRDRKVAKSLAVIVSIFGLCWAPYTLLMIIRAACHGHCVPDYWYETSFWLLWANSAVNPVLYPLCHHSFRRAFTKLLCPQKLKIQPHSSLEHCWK

Test [1] deals with T1, Histamine H3 receptor (Homo sapiens, UniProt Q9Y5N1). Nature of the test: Binding affinity at human histamine H3 receptor.
The target in test [2] is T1, Histamine H3 receptor. Nature of the test: Antagonist activity at human histamine H3 receptor. It is filed as functional. The following applies: read-out: pA2 (converted).

As for `COc1ccc(C2CN(C)Cc3cc(OCCCN4CCC(F)CC4)ccc32)cc1` (single isomer, unassigned; (-)), the Ki (in general, the equilibrium dissociation constant of an inhibitor or competing ligand from its target) at Histamine H3 receptor [1] was determined as 3.8 nM. Moreover, the Kb on Histamine H3 receptor [2] is 3.63 nM. Consider `COc1ccc(C2CN(C)Cc3cc(OCCCN4CCC(F)CC4)ccc32)cc1` (racemic), for which the affinity on Histamine H3 receptor [1], expressed as Ki, was 4 nM. Moreover, the Kb on Histamine H3 receptor [2] is 1.29 nM. In the case of `COc1ccc(C2CN(C)Cc3cc(OCCCN4CCC(F)CC4)ccc32)cc1` (stereo in doubt; 12b), the Kb at Histamine H3 receptor [2] was 2.63 nM. On the same count and under the same terms, the figure for `CN1Cc2cc(OCCCN3CCC(F)CC3)ccc2C(c2ccc(S(C)(=O)=O)cc2)C1` (stereo unspecified) is 0.525 nM.
